In patent US10363320B2, “Conjugate comprising oxyntomodulin and an immunoglobulin fragment, and use thereof” (HANMI SCIENCE CO., LTD, priority 2011, dated 2019) one finds EC50 data, which are given here for one substance.

By UniProt entry, the sequences of proteins in these tests, tags left out. Residues count along the entry.
UniProt P43220, 24-463: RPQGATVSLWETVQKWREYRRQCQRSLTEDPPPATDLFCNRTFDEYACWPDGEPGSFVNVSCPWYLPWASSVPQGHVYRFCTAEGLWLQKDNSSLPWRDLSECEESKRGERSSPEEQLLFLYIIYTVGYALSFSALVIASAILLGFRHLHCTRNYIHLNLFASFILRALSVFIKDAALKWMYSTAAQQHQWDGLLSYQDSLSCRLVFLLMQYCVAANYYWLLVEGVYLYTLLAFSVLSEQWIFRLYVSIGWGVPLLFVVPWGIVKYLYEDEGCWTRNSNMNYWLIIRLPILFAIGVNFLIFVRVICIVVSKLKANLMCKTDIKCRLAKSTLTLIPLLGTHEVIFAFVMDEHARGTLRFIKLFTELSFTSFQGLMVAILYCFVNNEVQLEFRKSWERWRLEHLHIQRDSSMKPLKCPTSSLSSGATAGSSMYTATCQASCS

pEC50: −log10 of the molar value.

The target of the test is T1, human GLP-1 receptor (Homo sapiens, UniProt P43220).
T1 construct: host or cells: CHO DG44
As to the kind of experiment: cAMP response in CHO cell line expressing human GLP-1 receptor (CHO/GLP-1R). The format is cell-based. Conditions: read-out: EC50 CHO/GLP-1R, Table 3, Fc conjugates, GLP-1, glucagon, 37° C. for 1 hour. As for the experimental part: The PCR product was cloned into the known animal cell expression vector x0GC/dhfr to prepare a recombinant vector x0GC/GLP1R.
CHO DG44 cell line cultured in DMEM/F12 (10% FBS) medium was transfected with the recombinant vector x0GC/GLP1R using LIPOFECTAMINE® (INVITROGEN®, USA), and cultured in a selection medium containing 1 mg/mL G418 and 10 nM methotraxate.
The cultured cells were washed with KRB buffer and suspended in 40 ml of KRB buffer containing 1 mM IBMX, and left at room temperature for 5 minutes. […] Then, 20 mL of cell lysis buffer was added for cell lysis, and the cell lysates were applied to a cAMP assay kit (Molecular Device, USA) to measure cAMP concentrations. EC50 values were calculated therefrom, and compared to each other.
Each of the cultured transformants was washed with KRB buffer and suspended in 40 ml of KRB buffer containing 1 mM IBMX, and left at room temperature for 5 minutes. […] Then, 20 ml of cell lysis buffer was added for cell lysis, and the cell lysates were applied to a cAMP assay kit (Molecular Device, USA) to measure cAMP concentrations using a Victor (PERKIN ELMER®, USA). EC50 values were calculated therefrom, and compared to each other (Table 3).

Consider Glucagon [reference compound], for which the pEC50 was under 6.00.
